Data published in ChEMBL document CHEMBL5532725, “SARS-CoV-2 Main Protease Inhibitors That Leverage Unique Interactions with the Solvent Exposed S3 Site of the Enzyme” (ACS Med Chem Lett, 2024).

Biological target: Replicase polyprotein 1ab (Severe acute respiratory syndrome coronavirus 2, UniProt P0DTD1)
Experiment: Inhibition of SARS-CoV-2 MPro preincubated for 30 mins followed by substrate addition by fluorescence based assay

CC1(C)[C@@H]2[C@@H](C(=O)N[C@H](C#N)C[C@@H]3CCNC3=O)N(C(=O)[C@@H](NC(=O)C(F)(F)F)c3ccc(Cl)c(Cl)c3)C[C@@H]21
IC50: 25 nM
